Values of other authors in patent US8394763B2, “Cyclic undecapeptides and derivatives as multiple sclerosis therapies” (Oregon Health & Science University, priority 2007, dated 2013).

By UniProt entry, the sequences of proteins in these tests, tags left out.
UniProt P62937, whole entry, species assumed: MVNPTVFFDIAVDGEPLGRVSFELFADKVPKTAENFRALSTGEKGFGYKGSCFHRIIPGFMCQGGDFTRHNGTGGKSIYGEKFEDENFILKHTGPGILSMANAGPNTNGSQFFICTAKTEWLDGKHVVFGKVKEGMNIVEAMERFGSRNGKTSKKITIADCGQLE

Target: CypA (Homo sapiens, UniProt P62937)
Conditions: see U.S. Pat. No. 6,927,208 and WO 2006/038088; cited from earlier work

| Substance | apparent Ki for CypA activity compared with CsA |
| --- | --- |
| [MeVal]^4-CsA | less than the Ki of CsA |
| Cyclo[L-alanyl-D-alanyl-N-methyl-L-leucyl-N-methyl-L-leucyl-N-methyl-L-valyl-(2S,3R,4R,6E)-3-hydroxy-4-methyl-2-methylamino-6-octenoyl-(2S)-2-aminobutanoyl-N-methyl-D-alanyl-N-ethyl-L-valyl-L-valyl-N-methyl-L-leucyl] [[D-MeAla]^3-[EtVal]^4-CsA] | less than the Ki of CsA |
| [MeIle]^4-CsA | less than the Ki of CsA |
